Values of other authors, collected in patent US20250249115A1, “COMBINATION THERAPY FOR TREATING TUMOR ANTIGEN EXPRESSING CANCERS” (Gilead Sciences, Inc., priority 2022, published 2025).

Test system: esterase activity residing primarily in the liver
Settings: cited from earlier work

For `CCc1c2c(nc3ccc(OC(=O)N4CCC(N5CCCCC5)CC4)cc13)-c1cc3c(c(=O)n1C2)COC(=O)[C@]3(O)CC` [irinotecan], the “fraction converted to the active SN-38 form” value is given as 5%.
